The values that follow come from patent publication US7196061B2, “Compounds that modulate neuronal growth and their uses” (priority 2003, dated 2007).

Chains of the proteins cited; added tags and fusions are not shown. Residues count along the entry.
UniProt Q63604, 32-821: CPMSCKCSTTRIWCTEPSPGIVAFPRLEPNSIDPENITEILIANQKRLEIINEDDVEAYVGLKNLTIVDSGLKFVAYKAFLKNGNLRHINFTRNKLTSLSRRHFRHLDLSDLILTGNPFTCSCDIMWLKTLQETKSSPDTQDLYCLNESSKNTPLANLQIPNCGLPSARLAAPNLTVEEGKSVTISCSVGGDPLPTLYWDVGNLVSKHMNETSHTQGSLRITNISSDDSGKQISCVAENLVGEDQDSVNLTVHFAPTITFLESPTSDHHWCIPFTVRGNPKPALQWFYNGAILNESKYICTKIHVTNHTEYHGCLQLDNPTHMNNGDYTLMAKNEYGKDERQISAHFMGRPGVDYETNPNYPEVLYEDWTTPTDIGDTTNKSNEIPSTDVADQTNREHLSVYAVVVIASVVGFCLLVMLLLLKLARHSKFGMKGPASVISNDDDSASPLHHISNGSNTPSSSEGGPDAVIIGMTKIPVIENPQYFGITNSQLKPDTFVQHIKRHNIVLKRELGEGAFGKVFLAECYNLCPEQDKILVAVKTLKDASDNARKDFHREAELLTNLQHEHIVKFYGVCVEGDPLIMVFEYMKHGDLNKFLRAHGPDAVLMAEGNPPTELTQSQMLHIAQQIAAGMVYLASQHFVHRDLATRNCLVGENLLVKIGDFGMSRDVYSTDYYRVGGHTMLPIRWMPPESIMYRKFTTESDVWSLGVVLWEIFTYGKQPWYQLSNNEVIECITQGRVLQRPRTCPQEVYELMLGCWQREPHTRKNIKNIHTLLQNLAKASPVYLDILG

Assay [1] has as its target T1, TrkB receptor (Rattus norvegicus, UniProt Q63604).
T1 construct: endogenous in cells; host or cells: primary rat cerebellar neurons co-cultured on 3T3 fibroblast monolayers
The experiment in a line: Neurite outgrowth assay, inhibition of the NT-4 response. Type of assay: cell-based. The note with it: NT-4 5 ng/ml; read-out: 50% inhibition of the NT-4 response. The method, then:
(§1) After 16 hours, the co-cultures were fixed and mean neurite length determined as has been previously described (Williams et al., J. Biol. Chem. 2000, 275:4007–4012).
(§2) To test this hypothesis, a cyclic version of the LIP was designed that was constrained by a disulfide bond and has the amino acid sequence: N-Ac-CRGEC-NH2(SEQ ID NO:9). The effect of this peptide on the BDNF and NT-4 response was tested in the above-described neurite outgrowth assay, with both NT ligands used at concentrations of 5 ng/ml.

For assay [2], the target named is T1, TrkB receptor. Description: Neurite outgrowth assay, inhibition of the BDNF response. The class given is cell-based. The conditions noted are these: BDNF 5 ng/ml; read-out: 50% inhibition of the BDNF response. As for the experimental part: as §1, §2

Turning to N-Ac-CRGEC-NH2, the IC50 was 112 ± 22 µM on TrkB receptor [1] and 144 ± 23 µM at TrkB receptor [2].
